According to PubChem BioAssay AID687016 (The Scripps Research Institute Molecular Screening Center, 2013):
The entries are a selection whose mix differs from that of the whole data set. The source made the active and inactive calls. No stated cut-off is given here; in the data, active means inhibition above about 21%; inactive means the rest.

Chains of the proteins cited; added tags and fusions are not shown.
UniProt Q96T88, whole entry: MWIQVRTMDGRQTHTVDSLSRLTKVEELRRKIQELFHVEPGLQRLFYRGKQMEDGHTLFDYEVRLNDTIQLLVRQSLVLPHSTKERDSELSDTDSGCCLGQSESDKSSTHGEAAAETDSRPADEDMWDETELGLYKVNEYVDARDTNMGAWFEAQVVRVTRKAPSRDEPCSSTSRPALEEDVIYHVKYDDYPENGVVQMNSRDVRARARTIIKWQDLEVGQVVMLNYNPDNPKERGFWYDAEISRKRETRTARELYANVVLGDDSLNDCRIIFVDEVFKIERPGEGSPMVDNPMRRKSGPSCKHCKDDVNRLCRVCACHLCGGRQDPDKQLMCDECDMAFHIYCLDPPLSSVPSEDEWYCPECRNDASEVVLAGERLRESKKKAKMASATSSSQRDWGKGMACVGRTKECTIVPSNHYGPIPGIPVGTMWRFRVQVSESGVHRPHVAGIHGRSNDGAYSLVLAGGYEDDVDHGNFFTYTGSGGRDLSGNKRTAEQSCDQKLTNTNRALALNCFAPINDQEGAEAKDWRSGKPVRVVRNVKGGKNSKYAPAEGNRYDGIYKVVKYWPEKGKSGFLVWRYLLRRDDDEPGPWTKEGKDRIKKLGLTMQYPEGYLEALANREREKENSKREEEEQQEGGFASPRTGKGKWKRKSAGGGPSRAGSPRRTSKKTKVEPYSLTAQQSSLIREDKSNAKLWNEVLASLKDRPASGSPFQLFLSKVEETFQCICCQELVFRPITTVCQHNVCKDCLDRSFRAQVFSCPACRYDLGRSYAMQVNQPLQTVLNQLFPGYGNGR

Molecular target: E3 ubiquitin-protein ligase UHRF1 (Homo sapiens) (UniProt Q96T88)
Test: blockers of UHRF1 binding to methyl-oligo – biochemical, TR-FRET, human UHRF1, single concentration, counter-screen for MBD2 inhibitor project, primary screen (AID 687016);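 further: UHRF1 SRA domain binding a hemimethylated CpG hairpin DNA probe; 0% = median of test compound wells and 100% = reference inhibitor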
Settings: UHRF1 binding to methylated oligo, at 4.4 µM, hits give high values

SMILES | inhibition
O=[N+]([O-])c1cccc2n[nH]nc12 | inactive: 2.83%
